Data as given in patent EP3235511A1, “SULPHONAMIDE COMPOUNDS FOR USE IN THE TREATMENT OF HHV-8-ASSOCIATED DISEASES” (UNIVERSITA' DEGLI STUDI DI CAGLIARI, priority 2016, dated 2017).

Amino acid sequences for entries named in this document (tags omitted).
UniProt Q00987, whole entry: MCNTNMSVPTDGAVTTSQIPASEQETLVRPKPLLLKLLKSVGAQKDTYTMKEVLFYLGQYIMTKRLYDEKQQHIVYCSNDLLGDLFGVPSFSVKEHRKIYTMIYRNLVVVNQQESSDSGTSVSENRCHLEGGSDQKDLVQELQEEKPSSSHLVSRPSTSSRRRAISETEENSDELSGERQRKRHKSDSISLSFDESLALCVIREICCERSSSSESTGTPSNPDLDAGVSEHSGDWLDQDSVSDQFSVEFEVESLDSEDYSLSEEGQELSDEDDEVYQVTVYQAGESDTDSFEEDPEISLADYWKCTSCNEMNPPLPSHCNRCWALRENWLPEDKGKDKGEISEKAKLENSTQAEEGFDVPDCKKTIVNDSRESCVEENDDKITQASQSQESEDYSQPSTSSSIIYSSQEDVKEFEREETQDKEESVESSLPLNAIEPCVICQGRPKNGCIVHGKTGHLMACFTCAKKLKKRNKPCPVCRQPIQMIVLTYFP

Target: T1, MDM2-p53 complex (Homo sapiens, UniProt Q00987)
T1 construct: purchased Sigma
Assay: ELISA-based P53-MDM2 binding assay
Conditions: compound added before the formation of the complex; 50 µg/mL
Procedure: In short, 96-well ELISA micro-plates (from Greiner Bio One, Austria) were coated for incubation overnight with 2 µg/mL p53 (human recombinant from Sigma) in PBS at 4 °C. The next day, the coating buffer was removed and the plates were incubated with Chemi-Blocker blocking buffer (from Merck-Millipore, Italy) for 2 hours at room temperature to block non-specific protein binding sites on the plate. […] The compounds under test were dissolved in DMSO (dimethyl sulfoxide, 5 mg/mL stock solution) and diluted in blocking buffer to obtain a final concentration of 50 µg/mL. The total incubation time of GST-MDM2 was 1 h. […] The absorbance was measured with a Microtiter plate reader (Model 680, from Bio-Rad, Hercules, CA) equipped with a 450 nm filter and the respective luminescence units (RLU) were measured. The inhibition percentage of the p53-MDM2 complex was calculated as follows: […]
Data are expressed as µg/mL ± SE average of three independent experiments.

## COc1ccc(C2=NC(c3ccc(Cl)cc3)C(c3ccc(Cl)cc3)N2C(=O)N2CCNC(=O)C2)c(OC(C)C)c1 (stereo not shown) [nutlin 3]
  inhibition of MDM2-p53 complex formation: 62%
